From PubChem BioAssay AID604 (The Scripps Research Institute Molecular Screening Center, 2007)
This is a selection; strong and weak results do not stand in their true shares. Activity calls are given as the source filed them.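 The calls were made as follows: active = inhibition above the screen-wide mean inhibition plus 3 SD (cut at about 18% in these data); inactive = the rest.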

Protein sequences, listed by entry. Tags and fused reporters are not part of them. Lines headed by an entry give the natural chain unless they say otherwise; changes in a name come on top.
UniProt O75116: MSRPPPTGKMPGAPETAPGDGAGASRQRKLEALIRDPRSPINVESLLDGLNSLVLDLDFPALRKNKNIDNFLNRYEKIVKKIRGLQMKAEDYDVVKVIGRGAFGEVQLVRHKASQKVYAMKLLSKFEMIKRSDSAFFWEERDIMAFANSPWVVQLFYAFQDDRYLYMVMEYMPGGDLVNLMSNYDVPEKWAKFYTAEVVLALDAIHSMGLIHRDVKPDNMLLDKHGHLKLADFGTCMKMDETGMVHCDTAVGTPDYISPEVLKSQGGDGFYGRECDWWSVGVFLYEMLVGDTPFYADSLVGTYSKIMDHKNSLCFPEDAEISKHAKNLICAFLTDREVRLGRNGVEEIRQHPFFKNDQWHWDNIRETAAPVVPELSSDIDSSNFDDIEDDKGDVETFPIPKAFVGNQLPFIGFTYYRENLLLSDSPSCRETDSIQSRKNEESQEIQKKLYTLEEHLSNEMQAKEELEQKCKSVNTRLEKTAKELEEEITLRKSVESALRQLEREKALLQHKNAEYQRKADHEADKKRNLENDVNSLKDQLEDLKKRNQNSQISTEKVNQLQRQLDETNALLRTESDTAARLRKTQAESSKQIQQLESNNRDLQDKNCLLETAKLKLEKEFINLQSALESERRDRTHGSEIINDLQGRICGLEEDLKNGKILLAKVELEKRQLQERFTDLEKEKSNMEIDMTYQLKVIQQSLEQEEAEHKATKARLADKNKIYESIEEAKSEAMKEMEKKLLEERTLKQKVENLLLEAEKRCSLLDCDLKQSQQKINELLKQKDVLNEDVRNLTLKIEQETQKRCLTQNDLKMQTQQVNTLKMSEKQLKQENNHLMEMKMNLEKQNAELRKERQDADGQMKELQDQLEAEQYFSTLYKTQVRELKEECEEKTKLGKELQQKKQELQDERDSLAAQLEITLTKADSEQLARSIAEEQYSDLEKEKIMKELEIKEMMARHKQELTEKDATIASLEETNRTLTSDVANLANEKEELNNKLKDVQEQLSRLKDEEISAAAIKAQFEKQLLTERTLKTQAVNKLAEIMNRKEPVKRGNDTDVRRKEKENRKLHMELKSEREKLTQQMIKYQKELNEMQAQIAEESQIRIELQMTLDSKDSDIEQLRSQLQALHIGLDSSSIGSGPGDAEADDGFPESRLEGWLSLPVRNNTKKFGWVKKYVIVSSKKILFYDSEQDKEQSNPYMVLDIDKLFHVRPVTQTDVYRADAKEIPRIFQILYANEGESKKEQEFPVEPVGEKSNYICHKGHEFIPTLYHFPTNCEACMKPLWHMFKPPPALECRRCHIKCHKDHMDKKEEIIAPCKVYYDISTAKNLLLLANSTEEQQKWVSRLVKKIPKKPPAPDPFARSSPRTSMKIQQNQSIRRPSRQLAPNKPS

Biological target: Rho-associated protein kinase 2 (Homo sapiens) (UniProt O75116)
Assay: ROCK2 enzymatic activity blockers – biochemical, high-throughput, luminescence, primary screen (AID 604);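 also: plate controls were DMSO wells for no effect and Y-27632 control wells after no-enzyme background subtraction for full effect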
Conditions: purified ROCK2, Kinase-Glo ATP depletion luminescence; at 6 µM; stronger effect = higher value

Row | SMILES | inhibition
1 | O=P1(Nc2nc3ccc(Cl)cc3s2)COc2ccccc2O1 (centres undefined) | inactive: -0.6%
2 | O=C(OC1CN2CCC1CC2)c1cccc(Cl)c1 (centres undefined) | inactive: -3%
3 | c1nnnn1CCn1cnnn1 | inactive: -5.2%
4 | O=P(Nc1nccs1)(c1ccccc1)c1ccccc1 | inactive: 6.5%
5 | CCc1nc2c(n1)c1c(non1O)c1c2no[n+]1[O-] | inactive: -1.1%
6 | Cc1c2non([O-])c-2c(C)[n+](=O)[n+]1[O-] | inactive: 1.3%
7 | O=C(OC1CN2CCC1CC2)C12CC3CC(CC(C3)C1)C2 (centres undefined) | inactive: -1.9%
8 | O=C(COc1ccccc1)OC1CN2CCC1CC2 (centres undefined) | inactive: -10.3%
9 | COP1(=S)c2c(C)nn(CCC#N)c2N=C(c2ccc(F)cc2)N1C (centres undefined) | inactive: -0.8%
10 | Clc1n[nH]nc1-c1nn[nH][15n]1 | inactive: -4.2%
11 | O=P1(Nc2ccccn2)COc2ccccc2OC1 | inactive: 3%
12 | Cc1ccc(OCC(=O)OC2CN3CCC2CC3)cc1 (centres undefined) | inactive: 7.8%
13 | O=P1(Nc2ccc(Br)cn2)COc2ccccc2OC1 | inactive: 2.4%
14 | O=P1(Nc2ncccn2)COc2ccccc2OC1 | inactive: 5.8%
15 | Cc1nn(-c2ccccc2)c2c1P(=O)(N1CCOCC1)N(C)C(c1ccccc1)=N2 (centres undefined) | inactive: 7.8%
16 | CCOP1(=S)c2c(C)nn(CCC#N)c2N=C(c2ccc(F)cc2)N1C (centres undefined) | inactive: 5.5%
17 | CCOP1(=S)c2c(C)nn(CCC#N)c2N=C(c2ccccc2F)N1C (centres undefined) | inactive: 1.8%
18 | O=P(Nc1nccs1)(c1ccccc1)c1nc2ccccc2s1 (centres undefined) | inactive: 2.8%
19 | Cc1cccc(OCC(=O)OC2CN3CCC2CC3)c1 (centres undefined) | inactive: 6.1%
